Source: paper PMC5620620, “Comparison of In Vitro Assays in Selecting Radiotracers for In Vivo P-Glycoprotein PET Imaging” (Pharmaceuticals, 2017)

Protein sequences, listed by entry. Tags and fused reporters are not part of them.
UniProt P08183, whole entry: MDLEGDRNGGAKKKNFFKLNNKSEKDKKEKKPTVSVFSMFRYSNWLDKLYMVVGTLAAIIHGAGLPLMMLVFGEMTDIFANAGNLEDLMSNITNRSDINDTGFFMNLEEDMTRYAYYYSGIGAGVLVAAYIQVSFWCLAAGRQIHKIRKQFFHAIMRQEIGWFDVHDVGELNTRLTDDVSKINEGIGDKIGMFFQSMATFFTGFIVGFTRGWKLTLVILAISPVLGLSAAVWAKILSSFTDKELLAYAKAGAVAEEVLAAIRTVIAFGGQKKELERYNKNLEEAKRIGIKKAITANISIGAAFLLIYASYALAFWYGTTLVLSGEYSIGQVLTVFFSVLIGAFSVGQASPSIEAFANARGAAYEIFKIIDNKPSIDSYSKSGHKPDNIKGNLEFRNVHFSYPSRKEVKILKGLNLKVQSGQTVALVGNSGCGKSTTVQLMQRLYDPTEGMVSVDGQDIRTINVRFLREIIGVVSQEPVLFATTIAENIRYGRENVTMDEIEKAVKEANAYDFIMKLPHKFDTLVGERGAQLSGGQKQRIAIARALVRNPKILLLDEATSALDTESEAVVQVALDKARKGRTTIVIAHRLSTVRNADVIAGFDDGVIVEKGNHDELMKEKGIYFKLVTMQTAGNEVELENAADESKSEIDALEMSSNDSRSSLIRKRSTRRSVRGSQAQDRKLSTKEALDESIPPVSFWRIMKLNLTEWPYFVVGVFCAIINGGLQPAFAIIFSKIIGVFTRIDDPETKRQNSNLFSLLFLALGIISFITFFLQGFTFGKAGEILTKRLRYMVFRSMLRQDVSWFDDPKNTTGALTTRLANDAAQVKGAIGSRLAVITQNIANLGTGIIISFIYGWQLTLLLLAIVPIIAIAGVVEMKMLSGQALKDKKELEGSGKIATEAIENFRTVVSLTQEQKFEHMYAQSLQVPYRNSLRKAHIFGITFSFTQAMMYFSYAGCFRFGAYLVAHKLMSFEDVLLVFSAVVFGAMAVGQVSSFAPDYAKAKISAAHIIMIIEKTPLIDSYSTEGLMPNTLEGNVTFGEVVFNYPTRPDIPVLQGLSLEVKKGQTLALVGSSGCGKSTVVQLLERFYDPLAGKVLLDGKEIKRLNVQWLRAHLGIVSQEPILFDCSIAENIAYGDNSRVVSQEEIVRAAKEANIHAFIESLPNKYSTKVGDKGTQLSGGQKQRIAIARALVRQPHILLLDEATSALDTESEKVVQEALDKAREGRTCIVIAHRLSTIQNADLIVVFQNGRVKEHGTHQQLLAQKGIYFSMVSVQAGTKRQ

Molecular target: P-gp (Homo sapiens, UniProt P08183)
Assay: Bidirectional transport of tritiated compounds in MDCKII-MDR1 cells
Settings: with ketoconazole 25 µM or tariquidar 10 µM, test compound 0.01 µM, [3H]digoxin 0.05 µM

A → B and B → A transport values due to inhibition: < 3
Compound: C[C@H]1O[C@@H](O[C@H]2[C@@H](O)C[C@H](O[C@H]3[C@@H](O)C[C@H](O[C@H]4CC[C@@]5(C)[C@H](CC[C@@H]6[C@@H]5C[C@@H](O)[C@]5(C)[C@@H](C7=CC(=O)OC7)CC[C@]65O)C4)O[C@@H]3C)O[C@@H]2C)C[C@H](O)[C@@H]1O [[^3H]Digoxin, digoxin]
